This note sets out measurements from US20200247897A1, “THERAPEUTIC ANTIBODIES BASED ON MUTATED IGG HEXAMERS” (GENMAB B.V., priority 2017, published 2020).

In one assay the test system is HCT 116. Kind of assay: Drug combination screen (ATPlite, Synergy Score), HCT 116. A general note: In ATP-based viability assays light output follows the ATP content of the culture.
The next assay has as its system SNU-C2B. Briefly: Drug combination screen (ATPlite, Synergy Score), SNU-C2B.
A further assay deals with DLD-1. Briefly: Drug combination screen (ATPlite, Synergy Score), DLD-1.
For a further assay, the system named is LS-411N. Briefly: Drug combination screen (ATPlite, Synergy Score), LS-411N.
The subject of the next assay is SW480. Kind of assay: Drug combination screen (ATPlite, Synergy Score), SW480.

Like-named read-outs stand apart in the source and are kept apart here.

As to `CN(Cc1cnc2nc(N)nc(N)c2n1)c1ccc(C(=O)N[C@@H](CCC(=O)O)C(=O)O)cc1` [Methotrexate], the “Synergy Score HCT-116” value in the assay with HCT 116 amounted to 0.5. Also, in the assay with SNU-C2B, the “Synergy Score SNU-C2B” value is reported as 1.7. In the assay on DLD-1, the “Synergy Score DLD-1” value came out at 0.1. Also, in the assay with LS-411N, the “Synergy Score LS-411N” value is listed as 6.6.
Consider `CC[C@@]1(O)C(=O)OCc2c1cc1n(c2=O)Cc2cc3c(CN(C)C)c(O)ccc3nc2-1` [Topotecan], for which the “Synergy Score SNU-C2B” value with SNU-C2B came out at 21.2. The “Synergy Score SW480” value in the assay on SW480 amounted to 30.5.
With `Cn1c(CCCC(=O)O)nc2cc(N(CCCl)CCCl)ccc21` [Bendamustine], the “Synergy Score HCT-116” value with HCT 116 stood at 0. Also, the “Synergy Score SNU-C2B” value with SNU-C2B amounted to 3. Moreover, in the assay on SW480, the “Synergy Score SW480” value worked out at 0.6.
`COc1cc([C@@H]2c3cc4c(cc3[C@@H](O[C@@H]3O[C@@H]5CO[C@@H](c6cccs6)O[C@H]5[C@H](O)[C@H]3O)[C@H]3COC(=O)[C@H]23)OCO4)cc(OC)c1O` [Teniposide]: the “Synergy Score DLD-1” value in the assay on DLD-1 was 18.8. Besides, the “Synergy Score LS-411N” value with LS-411N was 29.3.
As for `CN(C)/N=N/c1[nH]cnc1C(N)=O` [Dacarbazine], the “Synergy Score HCT-116” value in the assay on HCT 116 is on record as 1.5. The “Synergy Score DLD-1” value with DLD-1 worked out at 0.8.
As to `O=c1[nH]cc(F)c(=O)[nH]1` [Fluorouracil], the “Synergy Score HCT-116” value in the assay with HCT 116 was found to be 1. In addition, in the assay with SNU-C2B, the “Synergy Score SNU-C2B” value was 0.4. Moreover, in the assay with DLD-1, the “Synergy Score DLD-1” value is listed as 1.2. Moreover, the “Synergy Score SW480” value in the assay on SW480 turned out to be 0.8. Moreover, the “Synergy Score LS-411N” value in the assay with LS-411N stood at 1.1.
In the case of `CCC1=C[C@@H]2CN(C1)Cc1c([nH]c3ccccc13)[C@@](C(=O)OC)(c1cc3c(cc1OC)N(C)[C@H]1[C@@](O)(C(=O)OC)[C@H](OC(C)=O)[C@]4(CC)C=CCN5CC[C@]31[C@@H]54)C2` [vinorelbine], the “Synergy Score HCT-116” value in the assay on HCT 116 was 8.1. Besides, the “Synergy Score SNU-C2B” value with SNU-C2B turned out to be 11. In the assay with DLD-1, the “Synergy Score DLD-1” value was 5.9. Further, the “Synergy Score LS-411N” value in the assay on LS-411N is 21.5.
For the compound `CC[C@]1(O)C[C@H]2CN(CCc3c([nH]c4ccccc34)[C@@](C(=O)OC)(c3cc4c(cc3OC)N(C=O)[C@H]3[C@@](O)(C(=O)OC)[C@H](OC(C)=O)[C@]5(CC)C=CCN6CC[C@]43[C@@H]65)C2)C1` [vincristine], in the assay on SNU-C2B, the “Synergy Score SNU-C2B” value came to 17.2. For the same compound, in the assay on SW480, the “Synergy Score SW480” value was 12.1. Also, in the assay with LS-411N, the “Synergy Score LS-411N” value is 33.
For `C#Cc1cccc(Nc2ncnc3cc(OCCOC)c(OCCOC)cc23)c1` [Erlotinib], the “Synergy Score SW480” value in the assay with SW480 turned out to be 1. Moreover, the “Synergy Score LS-411N” value in the assay with LS-411N was 1.9.
With `Nc1nc(F)nc2c1ncn2[C@@H]1O[C@H](CO)[C@@H](O)[C@@H]1O` [Fludarabine], the “Synergy Score HCT-116” value in the assay with HCT 116 stood at 0.9. Moreover, the “Synergy Score LS-411N” value in the assay with LS-411N is on record as 0.1.
As to `CCN(CC)CCNC(=O)c1c(C)[nH]c(/C=C2\C(=O)Nc3ccc(F)cc32)c1C` [Sunitinib], the “Synergy Score SNU-C2B” value in the assay with SNU-C2B is on record as 1.4. Also, the “Synergy Score DLD-1” value with DLD-1 is recorded as 9.2.
As to `COc1cccc2c1C(=O)c1c(O)c3c(c(O)c1C2=O)C[C@@](O)(C(C)=O)C[C@@H]3O[C@H]1C[C@H](N)[C@H](O)[C@H](C)O1` [Daunorubicin], the “Synergy Score DLD-1” value in the assay with DLD-1 was 13.8. Moreover, the “Synergy Score LS-411N” value in the assay on LS-411N is given as 10.4.
Consider `N[C@@H](Cc1ccc(N(CCCl)CCCl)cc1)C(=O)O` [Melphalan], for which the “Synergy Score HCT-116” value in the assay with HCT 116 is 1.1. In the assay with SNU-C2B, the “Synergy Score SNU-C2B” value was 9. Further, the “Synergy Score DLD-1” value in the assay with DLD-1 is recorded as 6. In the assay with LS-411N, the “Synergy Score LS-411N” value is 3.4.
As to `CS(=O)(=O)CCNCc1ccc(-c2ccc3ncnc(Nc4ccc(OCc5cccc(F)c5)c(Cl)c4)c3c2)o1` [Lapatinib], the “Synergy Score SNU-C2B” value in the assay on SNU-C2B was 2.6. In addition, in the assay with SW480, the “Synergy Score SW480” value came out at 6.4. Also, the “Synergy Score LS-411N” value in the assay with LS-411N is recorded as 7.3.
Consider `CC(C)C[C@H](NC(=O)[C@H](Cc1ccccc1)NC(=O)c1cnccn1)B(O)O` [Bortezomib], for which the “Synergy Score SNU-C2B” value in the assay with SNU-C2B came out at 7.5. For the same compound, the “Synergy Score SW480” value in the assay on SW480 is 8.9.
For `Cc1nc(Nc2ncc(C(=O)Nc3c(C)cccc3Cl)s2)cc(N2CCN(CCO)CC2)n1` [Dasatinib], in the assay with HCT 116, the “Synergy Score HCT-116” value came out at 1.9. The “Synergy Score SNU-C2B” value with SNU-C2B is 1. The “Synergy Score SW480” value in the assay with SW480 came to 10.2.
On to TW-37, for which the “Synergy Score DLD-1” value with DLD-1 (compound in combination with IgG1-hDR5-01-G56T-E430G + IgG1-hDR5-05-E430G, DLD-1, 120 hour ATPlite, 6x6 matrix) is given as 13.8.
Take `O=C1[O][Pt]2([NH][C@@H]3CCCC[C@H]3[NH]2)[O]C1=O` [oxaliplatin, reference compound]: in the assay with HCT 116, the “Synergy Score HCT-116” value was 3.1. Also, the “Synergy Score SNU-C2B” value with SNU-C2B is 13.1. In the assay on DLD-1, the “Synergy Score DLD-1” value is 2.8.
